Values quoted from earlier work in US9133199B2, “Pyrimidine derivatives as protein kinase inhibitors” (Cyclacel Limited, priority 2007, dated 2015).

Molecular target: human PLK1 (Homo sapiens (Human), UniProt P53350)
Details: ATP concentration of 10 μM; read-out: IC50, phosphorylation of CDC25C by recombinant PLK1; cited from earlier work

In the case of scytonemin, the IC50 is given as roughly 2000 nM.
